Drawing on PubChem BioAssay AID436 (Emory University Molecular Libraries Screening Center, 2006), this text covers activity remaining (% of control) for two compounds.

Chains of the proteins cited; added tags and fusions are not shown.
UniProt Q92560, whole entry: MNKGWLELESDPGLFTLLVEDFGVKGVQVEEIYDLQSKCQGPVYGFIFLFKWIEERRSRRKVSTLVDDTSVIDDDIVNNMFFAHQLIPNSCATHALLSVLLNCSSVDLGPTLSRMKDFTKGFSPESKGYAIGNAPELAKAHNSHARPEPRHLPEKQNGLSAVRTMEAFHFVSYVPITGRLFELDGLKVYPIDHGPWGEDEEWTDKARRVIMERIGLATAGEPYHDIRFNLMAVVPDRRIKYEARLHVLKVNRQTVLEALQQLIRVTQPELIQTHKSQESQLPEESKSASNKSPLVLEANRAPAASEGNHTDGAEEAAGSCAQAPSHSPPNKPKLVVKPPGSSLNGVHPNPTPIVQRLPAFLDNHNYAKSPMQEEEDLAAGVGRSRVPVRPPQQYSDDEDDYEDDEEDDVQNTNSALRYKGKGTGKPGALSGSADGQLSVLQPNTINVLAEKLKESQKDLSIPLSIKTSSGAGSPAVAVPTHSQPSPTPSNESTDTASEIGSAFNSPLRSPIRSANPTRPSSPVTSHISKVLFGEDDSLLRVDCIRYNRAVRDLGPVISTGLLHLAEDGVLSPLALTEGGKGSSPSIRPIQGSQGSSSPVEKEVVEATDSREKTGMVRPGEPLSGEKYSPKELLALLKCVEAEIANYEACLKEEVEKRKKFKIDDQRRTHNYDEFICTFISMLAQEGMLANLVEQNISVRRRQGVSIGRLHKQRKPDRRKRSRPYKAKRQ

The list shows a part of the results, in another mix than the full data. Some tests of the compounds listed are not included; inactive here does not mean inactive elsewhere. Active and inactive are the calls of the source.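 How the source made its calls: active means activity remaining at or below 50% of control, provided the compound also passes the data quality filters; inactive means the rest, including low values that fail the filters.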

The experiment concerns the target Ubiquitin carboxyl-terminal hydrolase BAP1 (Homo sapiens) (UniProt Q92560). Nature of the experiment: inhibitors of BAP1 deubiquitinase, primary screen, biochemical, Ub-AMC fluorescence, kinetic (AID 436).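 Further: 100% = DMSO wells rate and 0% = substrate alone blank rate.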 The note with it: recombinant BAP1, Ub-AMC hydrolysis fluorescence kinetic; at 20 µM; active compounds read low.
In the case of `CN(C)c1cccc(C(=O)NCC2(N(C)C)CCCCC2)c1`, the activity remaining (% of control) was inactive: 110%. Next, `O=C(OC1CN2CCC1CC2)C(CO)(c1ccccc1)c1ccccc1` (configuration not stated): inactive: 105%.
